Tested on: HEK293 (BCR-ABL-) cells
Test: CCK-8 proliferation inhibition, HEK293 cells;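 further: Ten-point threefold dilution series starting at 10 µM, CCK-8 absorbance at 450 nm read after 2 h reagent incubation, DMSO-treated cells as negative control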
Conditions: Homo sapiens, HEK293, 48 h, read-out: Proliferative inhibitory activity (IC50, nM) HEK293 (BCR-ABL-)

Q: Cc1nc(Nc2ncc(C(=O)Nc3c(C)cccc3Cl)s2)cc(N2CCN(CCO)CC2)n1 [Dasatinib, reference compound] was tested. Which IC50 did it give?
A: > 10000 nM

— patent US11639343B2, “Compounds targeting and degrading BCR-ABL protein and its antitumor application” (ShanghaiTech University, priority 2019, dated 2023)
